Test results taken from PubChem BioAssay AID1863 (Southern Research Specialized Biocontainment Screening …, 2009).
The entries are a selection whose mix differs from that of the whole data set. Entries with a potency or affinity are not part of this list. Some of these compounds have results that are not shown, active ones among them. Activity calls are given as the source filed them.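 Rule for the calls: active = inhibition over 29.93%, a cutoff 3 SD above the screen mean, later confirmed by dose response; inconclusive = inhibition over 29.93% but no dose response follow-up; inactive = inhibition at most 29.93% or unconfirmed.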

Assay: PhoP-dependent GFP reporter repression – Salmonella Typhimurium, primary screen (AID 1863);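 note: 0% = low Mg2+ inducing control and 100% = high Mg2+ repressing control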
Conditions: S. Typhimurium PhoP-regulated promoter GFP reporter, 4 h; at 50 µM; hits give high values

Compound | inhibition
CN(C)C1CCCC1OC(=O)C(O)(c1ccccc1)c1ccccc1 (centres undefined) | inactive: -2.99%
CN(C)c1ccc(C(=O)NCC2(N(C)C)CCCCC2)cc1 | inactive: 2.18%
Cc1ccccc1C(=O)NCC1(N2CCCCC2)CCCCC1 | inactive: 3.7%
O=C(NCC1(N2CCCCC2)CCCCC1)c1cccc(Br)c1 | inactive: -0.4%
Cc1cc(C(=O)NCC2(N3CCCCC3)CCCCC2)ccc1[N+](=O)[O-] | inactive: 5%
CCN1CCCC(OC(=O)C2(O)c3ccccc3C=Cc3ccccc32)C1 (centres undefined) | inactive: -4.11%
COc1ccc(C(=O)NCC2(N(C)C)CCCCC2)cc1 | inactive: 0.31%
O=C(NCC1(N2CCCCC2)CCCCC1)c1cc(F)c(F)cc1Cl | inactive: 0.79%
C=CCN1CCN(CCOC(=O)C(O)(c2ccccc2)c2ccccc2)CC1 | inactive: -2.32%
CN1[C@@H]2CC[C@H]1CC(OC(=O)C(O)(c1ccccc1)c1ccccc1)C2 (some centres undefined) | inactive: -2.41%
O=C(NCC1(N2CCCCC2)CCCCC1)c1cc([N+](=O)[O-])ccc1Cl | inactive: -2.75%
Cc1ccc(C(=O)NCC2(N3CCCCC3)CCCCC2)cc1 | inactive: -2.25%
CC(C)N1C(=O)CC2(CCN(CCOC(=O)C(O)(c3ccccc3)c3ccccc3)CC2)C1=O | inactive: -7.53%
COc1cc(SC)ccc1C(=O)NCC1(N(C)C)CCCCC1 | inactive: 6.99%
CCN(CC)CC(C)C(C)OC(=O)C(O)(c1ccccc1)c1ccccc1 (centres undefined) | inactive: -13.2%
O=C(OC1CN2CCC1CC2)C(CO)(c1ccccc1)c1ccccc1 (centres undefined) | inactive: -0.98%
CN(C)c1cccc(C(=O)NCC2(N(C)C)CCCCC2)c1 | inactive: -6.53%
CC(C)Oc1ccc(C(=O)NCC2(N(C)C)CCCCC2)cc1 | inactive: -0.71%
COc1ccc(Br)c(C(=O)NCC2(N3CCCCC3)CCCCC2)c1 | inactive: -8.7%
COc1cc(C(=O)NCC2(N(C)C)CCCCC2)c([N+](=O)[O-])cc1OC | inactive: 7.41%
CN(C)C1(CNC(=O)c2ccc(Br)cc2)CCCCC1 | inactive: -4.24%
O=C(NCC1(N2CCCCC2)CCCCC1)c1cccc(Cl)c1 | inactive: -0.37%
COc1ccc(Cl)cc1C(=O)NCC1(N(C)C)CCCCC1 | inactive: 5.61%
COc1cccc(C(=O)NCC2(N3CCCCC3)CCCCC2)c1 | inactive: -1.69%
